Values of other authors as cited in PMC12865480 (Pharmaceuticals, 2025).

Sequences of proteins named here, by UniProt entry; tags and fusion partners are left off.
UniProt Q60492, whole entry: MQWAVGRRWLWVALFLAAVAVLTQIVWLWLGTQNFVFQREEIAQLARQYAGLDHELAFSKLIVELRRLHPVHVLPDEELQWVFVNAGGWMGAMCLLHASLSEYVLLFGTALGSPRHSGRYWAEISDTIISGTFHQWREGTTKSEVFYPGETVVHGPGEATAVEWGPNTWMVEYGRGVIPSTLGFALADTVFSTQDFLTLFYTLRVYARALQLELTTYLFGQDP

Legend:
σ1 receptor = σ1 receptor (Cavia porcellus, UniProt Q60492); settings: read-out: Ki σ1; earlier study; cited from earlier work
[1] = test system: capsaicin mouse model of neuropathic pain; settings: result in words; cited from earlier work
[2] = test system: human prostate cancer cell line DU145; settings: result in words; cited from earlier work

SMILES | Ki (σ1 receptor) | analgesic activity in the mouse capsaicin assay [1] | growth of the human prostate cancer cell line DU145 [2]
c1ccc(CNCC[C@@H]2CCO[C@H](c3ccccc3)O2)cc1 | 6 nM |  | 
c1ccc(CNCC[C@@H]2CCC[C@H](c3ccccc3)O2)cc1 |  | analgesically active | inhibited the growth
c1ccc(CNCC[C@H]2CCC[C@@H](c3ccccc3)O2)cc1 |  | analgesically active | inhibited the growth
